Literature values in US20070010466A1 (priority 2005, published 2007).

System: acute myelogenous leukemia
Conditions: enrollment halted; cited from earlier work

## C/C=C/C[C@@H](C)C(=O)[C@H]1C(=O)N[C@@H](C(C)C)C(=O)N(C)CC(=O)N(C)[C@@H](CC(C)C)C(=O)N[C@@H](C(C)C)C(=O)N(C)[C@@H](CC(C)C)C(=O)N[C@@H](C)C(=O)N[C@H](C)C(=O)N(C)[C@@H](CC(C)C)C(=O)N(C)[C@@H](CC(C)C)C(=O)N(C)[C@@H](C(C)C)C(=O)N1C [valspodar]
  mortality in the valspodar arm: excessive early mortality
